This is a selection; strong and weak results do not stand in their true shares. The source made the active and inactive calls.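 Rule for the calls: active = z-score above 3 at 5 µM with at least 500 cells counted in the well; inconclusive = wells under 500 cells, flagged as cytotoxic or low count; inactive = the rest.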

A short description of this assay: up-regulation of insulin promoter-GFP reporter – imaging, high-content screening, mouse beta cells (AID 1625). The following applies: MIN6 insulin promoter-GFP reporter, at 5 µM, stronger effect = higher value.
Regarding `CN(C(=O)Cc1ccc(Cl)c(Cl)c1)[C@@H]1CCCC[C@H]1N1CCCC1`, the z-score was inactive: -0.01.

Turning to `CC(C)/C=N\N=C(\N)N[N+](=O)[O-]`, the z-score is inactive: -0.61.

For the molecule `O=[As](O)(c1ccccc1Br)c1ccccc1Br`, the z-score was inactive: 0.05.

`CC(C)(C)C(=O)NC(Sc1ncccn1)C(Cl)(Cl)Cl` (stereo unspecified): the z-score was inactive: 0.35.

With `Clc1n[nH]nc1-c1nn[nH][15n]1`, the z-score is inactive: 0.99.

Take `O=[N+]([O-])c1cc([N+](=O)[O-])c(-n2nnc3ccccc32)c([N+](=O)[O-])c1`: the z-score was inactive: -0.06.

On to `O=P1(Nc2ccccn2)COc2ccccc2OC1`, for which the z-score is inactive: 0.03.

On to `CCOP(=O)(Nc1ccc(C)cn1)OCC`, for which the z-score is inactive: -0.27.

For `CCCOc1ccc(NP(C)(=O)Oc2ccc(Cl)cc2)cc1` (stereo unspecified), the z-score is inactive: 0.92.

As for `CP(=O)(Nc1ccc(SC(F)(F)F)cc1)Oc1ccccc1` (stereo unspecified), the z-score was inactive: 0.59.

For `Nc1cccc([As](=O)(O)c2ccccc2)c1`, the z-score is inactive: -0.21.

With `O=[As](O)(c1cccs1)c1cccs1`, the z-score is inactive: 0.56.

Turning to `Cc1ccc(OCC(=O)OC2CN3CCC2CC3)cc1` (stereo unspecified), the z-score was inactive: 1.15.

As for `O=P1(Nc2ccc(Br)cn2)COc2ccccc2OC1`, the z-score was inactive: 0.16.

Consider `CN1CCCCC1COC(=O)C1(O)c2ccccc2CCc2ccccc21` (stereo unspecified), for which the z-score is inactive: 0.41.

As to `COc1ccccc1OP(C)(=O)Nc1c(C)cccc1C` (stereo unspecified), the z-score is inactive: -0.7.

For the molecule `O=P1(Nc2ncccn2)COc2ccccc2OC1`, the z-score was inactive: 2.07.

Consider `CCOC(=O)C(CC)C1=NC(C)(C)Cc2ccccc21.O=[N+]([O-])c1cc([N+](=O)[O-])c(O)c([N+](=O)[O-])c1` (stereo unspecified), for which the z-score was inactive: -0.03.

With `CN(C)C1(CNC(=O)c2ccc(S(C)(=O)=O)cc2)CCCCC1`, the z-score was inactive: 0.6.

As for `O=[N+]([O-])c1cc([N+](=O)[O-])c(Nc2nnnn2CCO)c([N+](=O)[O-])c1`, the z-score is inactive: -0.12.

For `O=C(/C=C/c1ccccc1)OC1CN2CCC1CC2` (stereo unspecified), the z-score is inactive: 0.76.

Turning to `CC1CCC(C(C)C)C(OP(=O)(Nc2ccccn2)c2ccccc2)C1` (stereo unspecified), the z-score was inactive: 0.16.

In the case of `Cc1nn(-c2ccccc2)c2c1P(=O)(N1CCOCC1)N(C)C(c1ccccc1)=N2` (stereo unspecified), the z-score was inactive: -1.2.

Turning to `COc1cc(C2NCCC3(OCCO3)C2(C)C)cc(OC)c1OC.O=[N+]([O-])c1cc([N+](=O)[O-])c(O)c([N+](=O)[O-])c1` (stereo unspecified), the z-score is inactive: -0.31.

`CN(C(=O)Cc1ccccc1)[C@@H]1CC[C@]2(CCCO2)C[C@H]1N1CCCC1`: the z-score is inactive: -0.36.

On to `CCOP1(=S)c2c(C)nn(CCC#N)c2N=C(c2ccc(F)cc2)N1C` (stereo unspecified), for which the z-score was inactive: -0.46.

Regarding `CC1=NCCc2c1[nH]c1ccccc21.O=[N+]([O-])c1cc([N+](=O)[O-])c(O)c([N+](=O)[O-])c1`, the z-score is inactive: 0.04.

`O=[N+]([O-])c1ccc2c(c1)nnn2O`: the z-score is inactive: 0.08.

In the case of `O=C(O)COc1ccc([As](=O)(O)O)cc1[N+](=O)[O-]`, the z-score is inactive: -1.14.

For the molecule `Nc1ccccc1[As](=O)(O)c1ccccc1`, the z-score is inactive: 0.18.

For `O=P(Nc1nccs1)(c1ccccc1)c1nc2ccccc2s1` (stereo unspecified), the z-score is inactive: -0.45.

`O=C(O)c1cccc(Nc2c([N+](=O)[O-])cc([N+](=O)[O-])cc2[N+](=O)[O-])c1`: the z-score was inactive: 0.41.

With `CCOP1(=S)c2c(C)nn(CCC#N)c2N=C(c2ccccc2F)N1C` (stereo unspecified), the z-score is inactive: -0.88.

Take `CS(=O)(=O)c1cc([N+](=O)[O-])c2no[n+]([O-])c2c1`: the z-score was inactive: 1.11.

With `CCOP(=O)(Nc1cccc2ccccc12)OCC`, the z-score is inactive: 0.2.

For the molecule `Nc1cccc2c([As](=O)(O)O)cccc12`, the z-score was inactive: -0.09.

Regarding `Cc1ccc(NCCc2c([N+](=O)[O-])cc([N+](=O)[O-])cc2[N+](=O)[O-])cc1`, the z-score is inactive: -0.2.

In the case of `CP(=O)(Nc1cccc(Br)c1)Oc1ccccc1` (stereo unspecified), the z-score is active: 3.18.

For `Cc1ccc(C)c(NP(C)(=O)Oc2ccccc2)c1` (stereo unspecified), the z-score is inactive: -0.06.

As to `CCCOP(=S)(Nc1nc(N)cc(=O)[nH]1)OCCC`, the z-score was inactive: 1.75.

In the case of `Cc1cc(C)cc(OP(C)(=O)Nc2ccc(C)cc2C)c1` (stereo unspecified), the z-score is inactive: 0.51.

For the molecule `Cc1cccc(OCC(=O)OC2CN3CCC2CC3)c1` (stereo unspecified), the z-score was inactive: -0.37.

For `O=[As](O)(c1cccc(O)c1)c1cccc(O)c1`, the z-score is inactive: 0.8.

`CCOC(=O)c1ccc(NP(C)(=O)Oc2cc(C)cc(C)c2)cc1` (stereo unspecified): the z-score was inactive: -0.4.

For the molecule `O=C(OC1CN2CCC1CC2)c1ccc(Cl)cc1` (stereo unspecified), the z-score was inactive: 1.1.

Turning to `COc1ccccc1OP(C)(=O)Nc1cccc(Br)c1` (stereo unspecified), the z-score was inactive: -0.03.

With `O=[As](O)(O)c1cccnc1`, the z-score is inactive: -0.11.

With `COc1cc(C(=O)NCC2(N3CCOCC3)CCCCC2)cc(Cl)c1OC(C)C`, the z-score was inactive: 0.46.

Consider `COc1ccc(N/C(=N/P(=O)(N2CCOCC2)N2CCOCC2)N2CCOCC2)cc1`, for which the z-score is inactive: -0.27.

With `COc1cc(I)ccc1[As](=O)(O)O`, the z-score was inactive: -0.14.

On to `COc1ccc2nc(NP(=O)(c3ccccc3)c3ccccc3)sc2c1`, for which the z-score is inactive: -0.71.

In the case of `Cc1c2c(nc3ccccc13)SC(C(Cl)Cl)C2` (stereo unspecified), the z-score is inactive: 0.46.

In the case of `CCN(CC)CCCOC(=O)C(O)(c1ccccc1)c1ccccc1`, the z-score is inactive: 0.03.

In the case of `Cc1cc(=O)[nH]c(N[N+](=O)[O-])n1`, the z-score is inactive: 0.56.

On to `O=C(OC1CN2CCC1CC2)C12CC3CC(CC(C3)C1)C2` (stereo unspecified), for which the z-score is inactive: 0.51.

Turning to `COc1ccc(OP(C)(=O)Nc2cccc(F)c2)cc1` (stereo unspecified), the z-score was inactive: 0.46.

For `O=[N+]([O-])c1cc([N+](=O)[O-])c(-c2ccn[nH]2)s1`, the z-score was inactive: -1.73.

For `CC(C)NC(=O)NP(=O)(Oc1ccccc1)Oc1ccccc1`, the z-score is inactive: 0.54.

In the case of `COc1ccccc1OP(C)(=O)Nc1cc(Cl)ccc1C` (stereo unspecified), the z-score was inactive: -0.38.

For `Cc1cc(C)cc(OP(C)(N)=O)c1` (stereo unspecified), the z-score was inactive: 0.46.

Regarding `ClCCSc1nnc(-c2cccnc2)o1`, the z-score was inactive: 0.67.

Turning to `CCOC(=O)c1ccc(NP(C)(=O)Oc2ccccc2)cc1` (stereo unspecified), the z-score is inactive: 0.56.

On to `CC(C)c1ccc(OP(=O)(Nc2ccccn2)Oc2ccccc2F)cc1` (stereo unspecified), for which the z-score is inactive: 0.39.

In the case of `Cc1ccc(NP(C)(=O)Oc2ccccc2)c(C)c1` (stereo unspecified), the z-score was inactive: 1.34.

On to `COc1ccccc1OP(C)(=O)Nc1ccc(C)cc1` (stereo unspecified), for which the z-score is inactive: 0.26.

As to `Cc1cccc(C)c1OP(C)(N)=O` (stereo unspecified), the z-score was inactive: 0.62.

As for `Cc1ccc(OP(=O)(Nc2ccc([N+](=O)[O-])cn2)Oc2ccc(C)cc2)cc1`, the z-score is inactive: 0.54.

For the molecule `CC(C)(C)c1ccc(OP(C)(=O)Nc2ccc(SC(F)(F)F)cc2)cc1` (stereo unspecified), the z-score was inactive: -0.21.

As for `O=[N+]([O-])c1ccc2c(c1)C=Nc1ccccc1O2`, the z-score is inactive: -0.2.

Turning to `Cc1ccc2nc3c(c(C)c2c1)CC(C(Cl)Cl)S3` (stereo unspecified), the z-score was inactive: -0.02.

For the molecule `C[As](=O)(O)c1cccc(C(=O)O)c1`, the z-score was inactive: 0.27.

As for `O=[As](O)(c1ccc(O)cc1)c1ccccc1O`, the z-score was inactive: -0.01.

As for `COc1ccccc1OP(C)(=O)Nc1ccccc1` (stereo unspecified), the z-score was inactive: 0.3.

In the case of `Cc1cc(SC(NC=O)C(Cl)(Cl)Cl)ncn1` (stereo unspecified), the z-score was inactive: 1.65.

For the molecule `O=P(Nc1ccccn1)(c1cccc2ccccc12)c1cccc2ccccc12`, the z-score was inactive: -0.05.

Turning to `O=[N+]([O-])c1ccc(Nc2ccc(Oc3ccc([N+](=O)[O-])cc3[N+](=O)[O-])cc2)c([N+](=O)[O-])c1`, the z-score was inactive: -0.43.

Turning to `CP(=O)(Nc1ccccc1Br)Oc1ccccc1` (stereo unspecified), the z-score is inactive: 1.01.

Take `CP(=S)(Nn1cnnc1)Oc1ccccc1` (stereo unspecified): the z-score was inactive: -0.37.

On to `CCOC(=O)Nc1cccc([As](=O)(O)O)c1`, for which the z-score was inactive: -0.38.

As to `Cc1cc(SC(NC(=O)c2ccccc2)C(Cl)(Cl)Cl)nc(C(C)C)n1` (stereo unspecified), the z-score is inactive: -0.38.

In the case of `CCOC(=O)Nc1ccc([As](=O)(O)O)c(O)c1`, the z-score was inactive: 0.07.

In the case of `CCC(C)N(CC(C)C)C(=S)SC(NC(C)=O)C(Cl)(Cl)Cl` (stereo unspecified), the z-score is inactive: 0.23.

On to `CP(=O)(Nc1ccccn1)Oc1ccc(Cl)cc1` (stereo unspecified), for which the z-score is inactive: 1.35.

Regarding `CCOP(C)(=S)SCC(=O)NC(C)C(=O)O` (stereo unspecified), the z-score is inactive: -0.1.

On to `CCOC(=O)c1ccc(NP(C)(=O)Oc2ccc(OC)cc2)cc1` (stereo unspecified), for which the z-score was inactive: -0.04.

On to `CCOC(=O)c1ccc(NC(=O)C(C)(CCl)SC)cc1` (stereo unspecified), for which the z-score was inactive: 0.17.

With `Cc1cc(C)cc(OP(C)(=O)Nc2ccc(SC(F)(F)F)cc2)c1` (stereo unspecified), the z-score was inactive: -0.49.

As for `CP(=O)(NC(=O)Nc1ccccc1)Oc1ccccc1` (stereo unspecified), the z-score is inactive: -0.26.

In the case of `O=C(COc1ccccc1)OC1CN2CCC1CC2` (stereo unspecified), the z-score is inactive: -0.74.

As to `CCc1ccc(OP(C)(=O)N2CCN(c3ccc([N+](=O)[O-])cc3)CC2)cc1` (stereo unspecified), the z-score is inactive: -0.32.

For the molecule `CP(=O)(Oc1ccccc1)OC(c1ccccc1)C(F)(F)F` (stereo unspecified), the z-score was inactive: -0.23.

As for `COP1(=S)c2c(C)nn(CCC#N)c2N=C(c2ccc(F)cc2)N1C` (stereo unspecified), the z-score is inactive: 0.56.

As for `CP(=O)(Nc1ccc(SC(F)(F)F)cc1)Oc1ccc(Cl)cc1` (stereo unspecified), the z-score was inactive: -0.89.

For `Cc1cccc(C)c1OP(C)(=O)Nc1ccc(SC(F)(F)F)cc1` (stereo unspecified), the z-score is inactive: -0.38.

For `CC1CCN(C(=O)Oc2c(Cl)cc(Cl)c3cccnc23)CC1`, the z-score was inactive: -0.04.

In the case of `CC(C)=N/N=C(\N)N[N+](=O)[O-]`, the z-score was inactive: 0.05.

Consider `CN(C)C(=O)c1c([N+](=O)[O-])cc([N+](=O)[O-])cc1[N+](=O)[O-]`, for which the z-score was inactive: -0.1.

Regarding `CP(=O)(Nc1ccc(Cl)cc1)Oc1ccc(F)cc1` (stereo unspecified), the z-score was inactive: -0.33.

Take `CCN(/C(=N/P(=O)(N1CCOCC1)N1CCOCC1)N1CCOCC1)c1ccc(OC)cc1`: the z-score is inactive: 0.2.

As to `C[N+]1=C2C=CC=CC=C2SC12C([N+](=O)[O-])=CC([N+](=O)[O-])=C[C-]2[N+](=O)[O-]` (stereo unspecified), the z-score was inactive: -0.5.

For `COc1ccccc1OP(C)(=O)Nc1ccccc1Br` (stereo unspecified), the z-score is inactive: -0.14.

(Values after PubChem BioAssay AID1625 (Sanford-Burnham Center for Chemical Genomics, 2009).)
